SMILES strings stand for the structures.

The chains behind the UniProt entries cited, without tags or fusion partners. Residues count along the entry.
UniProt P81908, whole entry: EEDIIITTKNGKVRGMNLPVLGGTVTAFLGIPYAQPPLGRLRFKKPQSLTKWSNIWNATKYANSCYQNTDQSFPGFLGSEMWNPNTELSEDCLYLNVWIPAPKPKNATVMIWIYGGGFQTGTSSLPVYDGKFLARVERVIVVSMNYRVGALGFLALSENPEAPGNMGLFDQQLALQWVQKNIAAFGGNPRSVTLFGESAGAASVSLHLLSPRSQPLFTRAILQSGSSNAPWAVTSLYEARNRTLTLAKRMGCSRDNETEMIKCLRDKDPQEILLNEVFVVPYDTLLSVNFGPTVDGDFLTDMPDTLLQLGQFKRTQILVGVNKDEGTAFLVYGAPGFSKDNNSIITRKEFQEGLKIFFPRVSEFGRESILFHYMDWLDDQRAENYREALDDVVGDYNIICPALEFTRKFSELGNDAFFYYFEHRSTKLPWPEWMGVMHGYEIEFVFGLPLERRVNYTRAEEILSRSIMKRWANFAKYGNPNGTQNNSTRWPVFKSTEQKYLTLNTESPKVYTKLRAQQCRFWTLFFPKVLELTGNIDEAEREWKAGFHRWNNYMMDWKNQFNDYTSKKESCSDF
UniProt O42275, 24-633 limits assumed: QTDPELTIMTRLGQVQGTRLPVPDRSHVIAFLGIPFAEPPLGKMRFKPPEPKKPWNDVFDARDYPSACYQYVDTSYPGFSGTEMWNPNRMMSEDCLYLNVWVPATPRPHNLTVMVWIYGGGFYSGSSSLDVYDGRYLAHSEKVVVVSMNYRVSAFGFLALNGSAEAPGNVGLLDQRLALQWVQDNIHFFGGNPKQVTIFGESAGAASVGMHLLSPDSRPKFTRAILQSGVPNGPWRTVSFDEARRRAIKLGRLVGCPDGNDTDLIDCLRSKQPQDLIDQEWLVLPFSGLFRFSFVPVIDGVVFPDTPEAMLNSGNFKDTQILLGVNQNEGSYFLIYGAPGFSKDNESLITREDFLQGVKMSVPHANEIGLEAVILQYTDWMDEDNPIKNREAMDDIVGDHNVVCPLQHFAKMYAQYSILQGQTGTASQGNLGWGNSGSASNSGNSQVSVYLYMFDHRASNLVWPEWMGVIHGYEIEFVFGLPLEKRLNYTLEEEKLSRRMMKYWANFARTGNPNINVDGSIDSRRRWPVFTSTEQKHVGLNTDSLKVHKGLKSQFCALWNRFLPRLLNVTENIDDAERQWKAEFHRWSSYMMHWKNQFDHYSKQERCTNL

In experiment [1] the target is butyrylcholinesterase (BChE, equine serum) (Equus caballus, UniProt P81908). The experiment is described as follows: Ellman's assay, butyrylcholinesterase inhibition. The format is biochemical.
In experiment [2] the target is acetylcholinesterase (AChE, electric eel) (Electrophorus electricus, UniProt O42275). The following applies: 30 µM.

By Ki is commonly meant the dissociation constant of the complex between target and ligand, obtained from inhibition or displacement. For orientation: inhibition means how much of the control response was suppressed. Read a high inhibition as a strong effect. In the case of `C[C@H]1[C@H](C)CC[C@]2(C(=O)NCCN3CCCCC3)CC[C@]3(C)C(=CC[C@@H]4[C@@]5(C)CC[C@H](O)C(C)(C)[C@@H]5CC[C@]43C)[C@H]12`, in experiment [1] (BChE, equine serum), the “Type of Inhibition” value was “mixed-type”. Also, the “Ki′ (uncompetitive inhibition)” value in experiment [1] (BChE, equine serum, Ellman's assay) is 7640 ± 220 nM. For the same compound, the “Grade of inhibition in% BChE” value in experiment [1] (c = 30 µM, mean ± SE) came out at 75.72 ± 0.15%. Also, the Ki in experiment [1] (read-out: Ki (competitive inhibition), BChE, equine serum, Ellman's assay) turned out to be 2370 nM. In experiment [2], this compound gave an inhibition of 21.7%.
